Article PMC10917784
Values joined by “and” are separate entries in the source; they are usually repeats but may differ in a detail not shown here. Equal entries are not always repeated.

Protein sequences, listed by entry. Tags and fused reporters are not part of them. Residues count along the entry.
UniProt P08637, 17-208: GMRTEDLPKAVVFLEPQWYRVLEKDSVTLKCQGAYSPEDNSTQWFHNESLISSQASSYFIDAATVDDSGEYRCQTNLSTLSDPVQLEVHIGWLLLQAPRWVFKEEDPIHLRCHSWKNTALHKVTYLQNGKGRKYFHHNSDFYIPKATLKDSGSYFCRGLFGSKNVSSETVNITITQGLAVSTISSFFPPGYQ

Target: trastuzumab
Assay: SPR; antibody constructs captured on a Protein L Series S CM5 chip, Fc receptors flowed over; Biacore 8K+, 25 °C, neutral pH; 1:1 binding model (FcγRI and FcγRIIIa); three replicates

Kd: 146 nM and 142 nM and 144 nM
Substance: his-tagged human FcγRIIIa ECD (from UniProt P08637 17-208) (receptor)
